## scFv variants of Ab-14 (light chain) against a SARS-CoV-2 spike peptide

Data: MIT Lincoln Laboratory AlphaSeq set, Engelhart et al. 2022, doi:10.1038/s41597-022-01779-4, as distributed in FLAb.

Antigen: PDVDLGDISGINAS, a 14-residue peptide of the SARS-CoV-2 spike HR2 region.

Each scFv is VH, a 15-residue (Gly4Ser)3 linker, VL, as in the parent Ab-14, and differs from it in the CDRs of the light chain only.
VH: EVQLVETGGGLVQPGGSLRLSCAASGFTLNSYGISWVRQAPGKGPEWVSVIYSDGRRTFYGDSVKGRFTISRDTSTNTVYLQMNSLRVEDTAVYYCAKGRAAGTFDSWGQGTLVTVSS
VL: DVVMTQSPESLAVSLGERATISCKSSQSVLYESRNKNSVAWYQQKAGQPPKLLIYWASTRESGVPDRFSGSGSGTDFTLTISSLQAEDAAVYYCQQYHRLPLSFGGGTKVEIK

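The starting antibody came from a phage panning campaign against this peptide. Library AAYL50 holds single substitutions and randomly drawn double and triple substitutions in the CDRs. AlphaSeq pools MATa yeast showing the antibodies with MATalpha yeast showing the peptide. After mating in shaken culture at 30 °C for 16 h, diploids were selected and their barcode pairs sequenced. Scores were corrected for input abundance and mapped to Kd with protein pairs of known affinity run in the same pool. There are three technical replicates.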

The parent's light chain CDRs are KSSQSVLYESRNKNSVA, WASTRES, QQYHRLPLS; each variant's own CDRs replace them letter for letter. Every variant below is changed at Q96 of the VL (sequential numbering). Values are apparent Kd, the geometric mean of the replicates that gave a signal; lower means stronger binding. Where no diploid with the target was found in any replicate, the entry reads "nd": below detection, most likely a poor binder, though not proof of it. Nonspecific signal, from three strains lacking the peptide, appeared in 18% of pairings of library AAYL50, centred on 15 µM (5% of these signals below 970 nM); values are not corrected for it. Parent in this assay: reference entry 4.4 nM, copy in this library 48 nM.

Variant MSSQSVLYESRNKNSVA | WASTRES | QNYHRLGLS showed 460 nM (3 of 3 replicates). Variant KSSQSVLYESRNKNSVA | WASTRIS | YRYHRLPLS showed 21 nM (3 of 3 replicates). Variant KSSQSVLYESRNKWSVA | WASTAES | QSYHRLPLS showed 3.3 µM (1 of 3 replicates). Variant ESSQSVLYESRNKNSVA | WASTRES | QNKHRLPLS showed 110 nM (3 of 3 replicates). Variant KSSQSVLYESRNKNEVA | WASTRES | QAYHRLPLS showed 6.6 µM (2 of 3 replicates).

For KSSQSVLYESRNKNSVA | WASTRES | QLYHRLPRY, the assay gave nd (0 of 3 replicates). For KSSQSVLYEIRNINSVA | WASTRES | QNYHRLPLS, the assay gave nd (0 of 3 replicates). Variant KSSQSVLYESRNKNSVA | PASTREK | QLYHRLPLS showed 50 µM (2 of 3 replicates). Variant KSSQSMLYESRNKNSVA | WAATRES | QHYHRLPLS showed 480 nM (1 of 3 replicates). For KSSISVLYESRNKNSVA | WASTREP | QWYHRLPLS, the assay gave 4.4 µM (2 of 3 replicates).

With KSSQSVLYESRHKNSVA | WASTRES | QAYHRLPFS the result was 330 nM (3 of 3 replicates). Variant KSSYSVLYESRNKNSVA | WASTRES | QHYHRLYLS gave nd (0 of 3 replicates). With KLSQSVLYESRNKNSVA | WASTRES | QAYGRLPLS the result was nd (0 of 3 replicates). Variant KSSQSVLYESRNKNSQA | WASTRES | QGYHRLPLS showed nd (0 of 3 replicates). With KSSNSVLYESRNRNSVA | WASTRES | QSYHRLPLS the result was 390 nM (3 of 3 replicates).

With KSSQSVLYRSRNQNSVA | WASTRES | QFYHRLPLS the result was 5.4 nM (3 of 3 replicates). With KSSQSVLYESRNKHSVA | WASTRES | QNYRRLPLS the result was 8.5 nM (3 of 3 replicates). Variant KSSQSVLYESRAKNSVA | WAITRES | QIYHRLPLS gave 38 nM (2 of 3 replicates). With KSSQSVLYESENKNSVA | WASTRES | QEYHRLHLS the result was 23 nM (3 of 3 replicates). Variant KSSQSVPSESRNKNSVA | WASTRES | QNYHRLPLS gave 22 nM (3 of 3 replicates).

With KSSQSVPYESRNVNSVA | WASTRES | QKYHRLPLS the result was 7.1 µM (1 of 3 replicates). Variant KSSQSVLYESRNKNSVA | WASTRET | QLYHRLPLS gave 6.1 nM (3 of 3 replicates). Variant KSSQSVLYESRNKNSVA | WASTRES | QCYERLPLS gave 47 nM (3 of 3 replicates). With KSSQSVLYESRNKNSVA | AASTYES | QWYHRLPLS the result was 41 µM (3 of 3 replicates). Variant ASSQSVLYESRNKHSVA | WASTRES | QYYHRLPLS gave 3.5 µM (3 of 3 replicates).

Variant KSSRSVLYESRNKNSVA | WASTRES | QFYHRLPTS showed 950 µM (1 of 3 replicates). Variant KSSQSVLYESRLKNSVA | WASTRES | THYHRLPLS gave 11 nM (3 of 3 replicates). For KSSQSVLYESRNKNSVA | WASTRES | QGYHRLPLS, the assay gave 1.2 µM (3 of 3 replicates). Variant LSSQSVLYESRNKNSVA | WASTRES | QHYHRLPLS showed 760 nM (1 of 3 replicates). Variant KSSQSTLYESRNKNSVA | WASTRSS | QSYHRLPLS gave 210 nM (3 of 3 replicates).

Excerpt, the first 5 entries:

| CDR-L1 | CDR-L2 | CDR-L3 | Kd (apparent) | seen in |
|---|---|---|---|---|
| MSSQSVLYESRNKNSVA | WASTRES | QNYHRLGLS | 460 nM | 3 of 3 |
| KSSQSVLYESRNKNSVA | WASTRIS | YRYHRLPLS | 21 nM | 3 of 3 |
| KSSQSVLYESRNKWSVA | WASTAES | QSYHRLPLS | 3.3 µM | 1 of 3 |
| ESSQSVLYESRNKNSVA | WASTRES | QNKHRLPLS | 110 nM | 3 of 3 |
| KSSQSVLYESRNKNEVA | WASTRES | QAYHRLPLS | 6.6 µM | 2 of 3 |